According to ChEMBL document CHEMBL5257152, “Antiproliferative activity and toxicity evaluation of 1,2,3-triazole and 4-methyl coumarin hybrids in the MCF7 breast cancer cell line” (RSC Med Chem, 2023):

Assays:
[1] = Selectivity index, ratio of IC50 for mouse 3T3 cells to IC50 for mouse J774.A1 cells
[2] = Selectivity index, ratio of IC50 for mouse 3T3 cells to IC50 for human OVCAR cells

For `Cc1cc(=O)oc2cc(OCCn3cc(CCN4C(=O)c5ccccc5C4=O)nn3)ccc12`, the Ratio IC50 [1] was 0.015 and the Ratio IC50 [2] was 0.006.
